Laboratory results reported in patent publication US9676786B2, “Pharmacologically active compounds” (The University of Liverpool, priority 2013, dated 2017).

Assays:
neuropathic rats [1] = assay: Mechanical hyperalgesia, paw withdrawal thresholds in neuropathic rats (partial sciatic nerve ligation); type: in vivo, rat; details: neuropathic Wistar rats, p.o.
From the text: (§1) The wound was closed with skin clips.
(§2) Control animals received vehicle alone.

neuropathic rats [2] = assay: Cold sensitivity (10° C. cold plate), paw withdrawal latencies in neuropathic rats; type: in vivo, rat; details: 30 mg/kg p.o., neuropathic Wistar rats
From the text: as §1, §2

## CC(C)c1cc(C(=O)N2CCOCC2)cc(C(C)C)c1O [LT-01-25, (4-(hydroxy)-3,5-diisopropylphenyl)(morpholino)methanone]
Neuropathic rats [1]
  Contralateral paw withdrawal thresholds to mechanical pressure: significant increase
Neuropathic rats [2]
  Contralateral paw withdrawal latencies to cold: increased
